In patent US9006242B2, “Substituted benzene compounds” (Epizyme, Inc., priority 2012, dated 2015):

Test system: CYP1A, CYP2B6, CYP2C9, CYP3A
Type: in vitro ADME, human
[1] = human hepatocytes, 1 or 10 μmol/L

With `CCN(c1cc(C#CCN2CCOCC2)cc(C(=O)NCc2c(C)cc(C)[nH]c2=O)c1C)[C@H]1CC[C@H](N(C)CCOC)CC1` [Compound 2, N-((4,6-dimethyl-2-oxo-1,2-dihydropyridin-3-yl)methyl)-3-(ethyl((trans)-4-((2-methoxyethyl)(methyl)amino)cyclohexyl)amino)-2-methyl-5-(3-morpholinoprop-1-yn-1-yl)benzamide] the “CYP induction (in words)” value [1] was “no induction (with slightly lower activity)”.

`CCN(c1cc(C#CC2CCN(C)CC2)cc(C(=O)NCc2c(C)cc(C)[nH]c2=O)c1C)C1CCOCC1` [Compound 105, N-((4,6-Dimethyl-2-oxo-1,2-dihydropyridin-3-yl)methyl)-3-(ethyl(tetrahydro-2H-pyran-4-yl)amino)-2-methyl-5-((1-methylpiperidin-4-yl)ethynyl)benzamide] was tested, and the “CYP induction (in words)” value was “induction of CYP2B6, CYP2C9, and CYP3A”.

In the case of `CCN(c1cc(-c2ccc(OCCOC)cc2)cc(C(=O)NCc2c(C)cc(C)[nH]c2=O)c1C)[C@H]1CC[C@H](N(C)C)CC1` [Compound 1, N-((4,6-dimethyl-2-oxo-1,2-dihydropyridin-3-yl)methyl)-5-(((trans)-4-(dimethylamino)-cyclohexyl)(ethyl)-amino)-4′-(2-methoxyethoxy)-4-methyl-[1,1′-biphenyl]-3-carboxamide], the “CYP induction (in words)” value [1] is reported as “no significant induction (except potentially CYP2C9)”.

Like-named read-outs stand apart in the source and are kept apart here.
